Test results from article PMC7252619 (PLoS ONE, 2020).
Read-outs that look alike come from different tables or passages of the source.

The chains behind the UniProt entries cited, without tags or fusion partners. Residues count along the entry.
UniProt P35968, 20-1356: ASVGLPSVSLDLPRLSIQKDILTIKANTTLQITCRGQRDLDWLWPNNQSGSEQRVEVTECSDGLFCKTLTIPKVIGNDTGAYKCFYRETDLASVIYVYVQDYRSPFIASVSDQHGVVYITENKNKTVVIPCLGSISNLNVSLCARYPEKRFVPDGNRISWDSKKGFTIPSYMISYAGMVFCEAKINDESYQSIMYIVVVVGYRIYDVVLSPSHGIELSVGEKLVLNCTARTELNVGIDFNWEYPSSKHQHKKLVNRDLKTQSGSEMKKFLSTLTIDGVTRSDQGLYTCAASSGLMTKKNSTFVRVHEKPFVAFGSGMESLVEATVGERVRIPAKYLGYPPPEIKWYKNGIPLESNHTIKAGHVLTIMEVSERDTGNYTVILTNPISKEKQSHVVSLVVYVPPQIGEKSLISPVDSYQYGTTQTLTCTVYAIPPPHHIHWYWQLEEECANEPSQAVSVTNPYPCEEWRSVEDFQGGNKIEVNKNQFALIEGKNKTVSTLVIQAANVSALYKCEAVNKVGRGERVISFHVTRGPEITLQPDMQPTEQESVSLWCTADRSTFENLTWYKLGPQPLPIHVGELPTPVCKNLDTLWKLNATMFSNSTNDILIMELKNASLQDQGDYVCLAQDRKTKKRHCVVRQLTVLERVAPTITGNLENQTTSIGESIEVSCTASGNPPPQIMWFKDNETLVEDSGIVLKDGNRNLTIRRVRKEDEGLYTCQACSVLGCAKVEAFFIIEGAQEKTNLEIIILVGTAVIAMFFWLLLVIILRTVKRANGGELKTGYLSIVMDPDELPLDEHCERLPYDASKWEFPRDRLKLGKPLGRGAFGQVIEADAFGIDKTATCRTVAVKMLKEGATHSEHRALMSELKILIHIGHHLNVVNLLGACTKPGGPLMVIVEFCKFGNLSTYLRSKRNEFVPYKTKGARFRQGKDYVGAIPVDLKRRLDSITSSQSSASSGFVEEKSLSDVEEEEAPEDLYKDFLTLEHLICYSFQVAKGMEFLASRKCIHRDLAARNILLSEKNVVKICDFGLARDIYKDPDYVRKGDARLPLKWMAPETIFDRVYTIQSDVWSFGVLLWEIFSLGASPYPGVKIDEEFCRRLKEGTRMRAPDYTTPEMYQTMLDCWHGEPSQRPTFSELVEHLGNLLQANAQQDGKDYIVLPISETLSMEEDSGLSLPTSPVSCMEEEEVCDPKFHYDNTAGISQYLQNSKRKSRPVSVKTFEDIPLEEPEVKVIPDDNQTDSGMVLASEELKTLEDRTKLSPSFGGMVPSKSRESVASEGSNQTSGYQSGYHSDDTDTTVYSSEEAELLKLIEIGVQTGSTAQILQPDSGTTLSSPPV

Key:
[1] = biological target: VEGFR2 (Homo sapiens, UniProt P35968); assay: Kinase activity test (ReactionBiology), % enzyme activity relative to DMSO;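 also: VEGFR2 was one member of a ten-kinase screening panel testing marketed FDA-approved drugs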
[2] = system: human PBMCs (responder cells) with RPMI1788 stimulator cells; assay: Mixed Lymphocyte Reaction (MLR, T cell assay), 3H-thymidine incorporation; format: cell-based; conditions: ratio of IC50 values
[3] = read-out: % Enzyme Activity (relative to DMSO controls), Average
[4] = read-out: % Enzyme Activity (relative to DMSO controls), Data 1
[5] = read-out: % Enzyme Activity (relative to DMSO controls), Data 2

Oc1c(Cl)cc(Cl)c(Cl)c1Cc1c(O)c(Cl)cc(Cl)c1Cl [Hexachlorophene, reference compound] was tested, and the remaining activity at 1 µM [1, 3] was 109%, the remaining activity at 10 µM [1, 3] was 5.14% and the remaining activity at 1 µM [1, 4] was 110%. The remaining activity at 10 µM [1, 4] was 5.15%, the remaining activity at 1 µM [1, 5] was 109% and the remaining activity at 10 µM [1, 5] was 5.13%. For the same molecule, the remaining activity at 1 µM ([1]; read-out: % Enzyme activity at 1μM) was 110%, the remaining activity at 10 µM ([1]; read-out: % Enzyme activity at 10μM) was 5.14% and the “Selectivity Index (SI) MLR/B-cell” value [2] was 0.27.
